Apparent affinities of Ab-91 variants for a coronavirus HR2 peptide

Target: peptide PDVDLGDISGINAS, taken from heptad repeat 2 (HR2) of SARS-CoV-2 spike.

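In library AAYL51, one, two or three CDR residues were substituted; doubles and triples were drawn at random. The assay is AlphaSeq: two haploid yeast populations carry antibody and antigen on their surface. The frequency of each diploid, read from paired DNA barcodes, reflects how well the two displayed proteins bind. Each replicate has its own calibration line, from reference interactions of the BCL2 family. The assay was run in three technical replicates.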

Parent scFv Ab-91: VL joined to VH by the linker GGGGSGGGGSGGGGS. Changes lie in the heavy chain CDRs alone.
VL: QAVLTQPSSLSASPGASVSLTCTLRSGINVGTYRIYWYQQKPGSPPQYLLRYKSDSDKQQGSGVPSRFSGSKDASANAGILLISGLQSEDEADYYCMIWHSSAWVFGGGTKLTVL
VH: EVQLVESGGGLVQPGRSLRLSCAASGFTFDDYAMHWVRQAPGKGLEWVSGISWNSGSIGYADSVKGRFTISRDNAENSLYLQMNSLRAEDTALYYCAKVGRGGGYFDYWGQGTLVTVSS

Positions count from residue 1 of the parent VH; W53M puts M in place of W.
This list gathers variants with a substitution at Y108 (VH, numbered from residue 1).
Kd is apparent (estimated from mating counts) and averaged on the log scale over replicates with a signal. Smaller is tighter.
An entry "no signal" has no value in the source: the pair was not observed among the diploids in any replicate. This suggests poor binding but is not conclusive.
As a blank, each scFv also met three strains without target: over library AAYL51, 21% of these pairings were detected, typically at 34 µM and seldom below 1.8 µM.

Variant W53M/G59V/Y108M showed no signal (0 of 3 replicates). Variant Y108Q showed 110 µM (1 of 3 replicates). With K65C/F106D/Y108V the result was 58 µM (3 of 3 replicates). With M34S/G104H/Y108L the result was no signal (0 of 3 replicates). For D107C/Y108C, the assay gave 24 nM (3 of 3 replicates). Variant V99T/G100T/Y108Q gave no signal (0 of 3 replicates). Variant S52L/V99Q/Y108I showed 4.5 µM (1 of 3 replicates). Variant A61D/Y108K showed no signal (0 of 3 replicates). Variant D107R/Y108P showed 33 nM (3 of 3 replicates).

Variant D31K/V64M/Y108H gave 2.6 nM (3 of 3 replicates). Variant G26H/S55F/Y108C gave 41 µM (2 of 3 replicates). With G102Y/G104D/Y108N the result was 130 nM (3 of 3 replicates). Variant A33Q/V99W/Y108D gave no signal (0 of 3 replicates). For I58S/G59A/Y108L, the assay gave 1.9 µM (3 of 3 replicates). Variant Y32D/V99D/Y108W gave no signal (0 of 3 replicates). For S52L/G59R/Y108L, the assay gave 4.9 µM (1 of 3 replicates). Variant I51K/G103D/Y108T showed no signal (0 of 3 replicates). Variant F29D/I51G/Y108E showed 13 µM (1 of 3 replicates).

Variant S52G/K65W/Y108M gave 22 µM (1 of 3 replicates). For I51P/Y60G/Y108W, the assay gave 20 µM (2 of 3 replicates). For H35V/N54R/Y108M, the assay gave 10 µM (1 of 3 replicates). Variant N54T/S55L/Y108A gave no signal (0 of 3 replicates). Variant Y32R/G104E/Y108H gave 82 µM (3 of 3 replicates). For D31G/Y108G, the assay gave 41 µM (3 of 3 replicates). With N54W/G103D/Y108G the result was 720 nM (1 of 3 replicates). For F27G/S57W/Y108A, the assay gave 8.7 µM (1 of 3 replicates). For Y60P/G104K/Y108D, the assay gave no signal (0 of 3 replicates).

With I58F/Y108C the result was 610 µM (1 of 3 replicates). Variant N54T/Y105E/Y108I gave 80 µM (1 of 3 replicates). Variant S55R/G103Y/Y108E gave no signal (0 of 3 replicates). Variant R101D/G103V/Y108K showed 940 nM (3 of 3 replicates). Variant T28Q/S57D/Y108E showed 20 nM (3 of 3 replicates). Variant D30R/W53P/Y108M showed 4.5 nM (3 of 3 replicates).

From the AlphaSeq antibody data of Engelhart et al. 2022 (doi:10.1038/s41597-022-01779-4), copy in the FLAb collection.